# Assay results taken from patent publication US20240360179A1, “STAPLED PEPTIDES AND METHODS THEREOF” (FOG PHARMACEUTICALS, INC., priority 2021, published 2024).
# By UniProt entry, the sequences of proteins in these tests, tags left out.
# UniProt P35222, whole entry: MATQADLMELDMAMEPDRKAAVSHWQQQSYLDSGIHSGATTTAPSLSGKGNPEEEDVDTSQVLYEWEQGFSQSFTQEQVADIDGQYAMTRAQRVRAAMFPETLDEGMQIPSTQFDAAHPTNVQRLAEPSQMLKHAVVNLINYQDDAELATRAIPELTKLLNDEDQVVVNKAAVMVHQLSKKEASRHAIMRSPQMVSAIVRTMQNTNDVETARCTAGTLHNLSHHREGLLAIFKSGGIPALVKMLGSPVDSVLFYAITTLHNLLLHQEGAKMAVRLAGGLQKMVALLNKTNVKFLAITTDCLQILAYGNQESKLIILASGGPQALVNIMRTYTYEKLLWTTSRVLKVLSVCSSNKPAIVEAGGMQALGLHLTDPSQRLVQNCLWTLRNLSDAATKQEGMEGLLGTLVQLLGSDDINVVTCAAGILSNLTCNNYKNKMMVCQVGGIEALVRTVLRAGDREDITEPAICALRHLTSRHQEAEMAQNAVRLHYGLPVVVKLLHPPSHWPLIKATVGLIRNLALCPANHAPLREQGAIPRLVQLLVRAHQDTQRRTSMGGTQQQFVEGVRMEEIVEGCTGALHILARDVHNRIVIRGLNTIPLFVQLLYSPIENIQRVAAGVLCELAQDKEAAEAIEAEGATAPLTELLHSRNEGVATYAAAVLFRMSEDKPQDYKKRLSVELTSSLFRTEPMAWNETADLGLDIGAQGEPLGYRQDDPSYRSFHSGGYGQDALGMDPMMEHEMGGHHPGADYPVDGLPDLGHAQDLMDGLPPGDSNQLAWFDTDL
# How the values were obtained:
# [1] = biological target: T1, full-length B-Catenin (Uniprot ID P35222) (Homo sapiens, UniProt P35222); test: biochemical; type: binding; details: beta-Catenin FP IC50 (nM), competition fluorescence polarization
# T1 construct: 10 nM full-length B-Catenin (Uniprot ID P35222)
# [2] = biological target: beta-catenin/TCF4 interaction (Homo sapiens, UniProt P35222); test: cell-based; parameters: host or cells: HEK293; details: NanoBRET Abs IC50 (uM), absolute IC50
Compound,IC50 [1] [nM],IC50 [2] [µM]
"CCCCCCCC[C@@H]1NC(=O)[C@H](CC(=O)O)NC(=O)[C@]2(CC=CCCCC3(CCCC=CCCCOC(=O)N4CC[C@@]5(C4)NC(=O)[C@H](CCCCNC(=O)CC[C@@H](C(=O)N[C@@H](C)C(N)=O)NC(=O)[C@H](Cc4csc6ccccc46)NC(=O)[C@H](Cc4ccsc4)NC5=O)NC(=O)[C@H](Cc4ccccc4)NC(=O)[C@H](C)NC(=O)C(C)(C)NC(=O)[C@H](Cc4cccc(C(=O)O)c4)NC(=O)[C@H](CC(=O)O)NC3=O)NC1=O)CCCN2C(C)=O (relative stereo) [I-311, Ac-PL3-Asp-OctG-B5-Asp-3COOHF-Aib-Ala-Phe-Lys*3-PyrS2-3Thi-BztA-GlnR*3-Ala-NH2]",< 50,1.5 to 3
"CC(=O)N1CCC[C@]12CC=CCCCC1(CCCC=CCCCOC(=O)N3CC[C@@]4(C3)NC(=O)[C@H](CCCCNC(=O)CC[C@@H](C(=O)N[C@@H](C)C(N)=O)NC(=O)[C@H](Cc3csc5ccccc35)NC(=O)[C@H](Cc3ccsc3)NC4=O)NC(=O)[C@H](Cc3ccccc3)NC(=O)[C@H](C)NC(=O)C(C)(C)NC(=O)[C@H](Cc3cccc(C(=O)O)c3)NC(=O)[C@H](CC(=O)O)NC1=O)NC(=O)[C@H](CC1CCC1)NC(=O)[C@H](CC(=O)O)NC2=O (relative stereo) [I-312, Ac-PL3-Asp-Cba-B5-Asp-3COOHF-Aib-Ala-Phe-Lys*3-PyrS2-3Thi-BztA-GlnR*3-Ala-NH2]",< 50,1.5 to 3
"CC(=O)N1CCC[C@]12CC=CCCCC1(CCCC=CCCCOC(=O)N3CC[C@@]4(C3)NC(=O)[C@H](CCCCNC(=O)CC[C@@H](C(=O)N[C@@H](C)C(N)=O)NC(=O)[C@H](Cc3csc5ccccc35)NC(=O)[C@H](Cc3ccsc3)NC4=O)NC(=O)[C@H](Cc3ccccc3)NC(=O)[C@H](C)NC(=O)C(C)(C)NC(=O)[C@H](Cc3cccc(C(=O)O)c3)NC(=O)[C@H](CC(=O)O)NC1=O)NC(=O)[C@H](CCCN1CCOCC1)NC(=O)[C@H](CC(=O)O)NC2=O (relative stereo) [I-313, Ac-PL3-Asp-MorphNva-B5-Asp-3COOHF-Aib-Ala-Phe-Lys*3-PyrS2-3Thi-BztA-GlnR*3-Ala-NH2]",< 50,> 10
"CC(=O)N1CCC[C@]12CC=CCCCC1(CCCC=CCCCOC(=O)N3CC[C@@]4(C3)NC(=O)[C@H](CCCCNC(=O)CC[C@@H](C(=O)N[C@@H](C)C(N)=O)NC(=O)[C@H](Cc3csc5ccccc35)NC(=O)[C@H](Cc3ccsc3)NC4=O)NC(=O)[C@H](Cc3ccccc3)NC(=O)[C@H](C)NC(=O)C(C)(C)NC(=O)[C@H](Cc3cccc(C(=O)O)c3)NC(=O)[C@H](CC(=O)O)NC1=O)NC(=O)[C@H](CCCN1CCC(F)(F)CC1)NC(=O)[C@H](CC(=O)O)NC2=O (relative stereo) [I-314, Ac-PL3-Asp-F2PipNva-B5-Asp-3COOHF-Aib-Ala-Phe-Lys*3-PyrS2-3Thi-BztA-GlnR*3-Ala-NH2]",< 50,3 to 10
"CC(=O)N1CCC[C@]12CC=CCCCC1(CCCC=CCCCOC(=O)N3CC[C@@]4(C3)NC(=O)[C@H](CCCCNC(=O)CC[C@@H](C(=O)N[C@@H](C)C(N)=O)NC(=O)[C@H](Cc3csc5ccccc35)NC(=O)[C@H](Cc3ccsc3)NC4=O)NC(=O)[C@H](Cc3ccccc3)NC(=O)[C@H](C)NC(=O)[C@H](CCC(=O)N3CCOCC3)NC(=O)[C@H](Cc3cccc(C(=O)O)c3)NC(=O)[C@H](CC(=O)O)NC1=O)NC(=O)[C@H](CC(C)(C)C)NC(=O)[C@H](CC(N)=O)NC2=O (relative stereo) [I-323, Ac-PL3-Asn-Npg-B5-Asp-3COOHF-MorphGln-Ala-Phe-Lys*3-PyrS2-3Thi-BztA-GlnR*3-Ala-NH2]",< 50,1.5 to 3
"CC(=O)N1CCC[C@]12CC=CCCCC1(CCCC=CCCCOC(=O)N3CC[C@@]4(C3)NC(=O)[C@H](CCCCNC(=O)CC[C@@H](C(=O)N[C@@H](C)C(N)=O)NC(=O)[C@H](Cc3csc5ccccc35)NC(=O)[C@H](Cc3ccsc3)NC4=O)NC(=O)[C@H](Cc3ccccc3)NC(=O)[C@H](C)NC(=O)[C@H](CCC(=O)N3CCOCC3)NC(=O)[C@H](Cc3cccc(C(=O)O)c3)NC(=O)[C@H](CC(=O)O)NC1=O)NC(=O)[C@H](CC(C)(C)C)NC(=O)[C@H](CO)NC2=O (relative stereo) [I-324, Ac-PL3-Ser-Npg-B5-Asp-3COOHF-MorphGln-Ala-Phe-Lys*3-PyrS2-3Thi-BztA-GlnR*3-Ala-NH2]",< 50,> 10
"CC(=O)N1CCC[C@]12CC=CCCCC1(CCCC=CCCCOC(=O)N3CC[C@@]4(C3)NC(=O)[C@H](CCCCNC(=O)CC[C@@H](C(=O)N[C@@H](C)C(N)=O)NC(=O)[C@H](Cc3csc5ccccc35)NC(=O)[C@H](Cc3ccsc3)NC4=O)NC(=O)[C@H](Cc3ccccc3)NC(=O)[C@H](C)NC(=O)[C@H](CCC(=O)N3CCOCC3)NC(=O)[C@H](Cc3cccc(C(=O)O)c3)NC(=O)[C@H](CC(N)=O)NC1=O)NC(=O)[C@H](CC(C)(C)C)NC(=O)[C@H](CC(=O)O)NC2=O (relative stereo) [I-326, Ac-PL3-Asp-Npg-B5-Asn-3COOHF-MorphGln-Ala-Phe-Lys*3-PyrS2-3Thi-BztA-GlnR*3-Ala-NH2]",< 50,3 to 10
"CC(=O)N1CCC[C@]12CC=CCCCC1(CCCC=CCCCOC(=O)N3CC[C@@]4(C3)NC(=O)[C@H](CCCCNC(=O)CC[C@@H](C(=O)N[C@@H](C)C(N)=O)NC(=O)[C@H](Cc3ccc(Cl)c(Cl)c3)NC(=O)[C@H](Cc3ccsc3)NC4=O)NC(=O)[C@H](Cc3ccccc3)NC(=O)[C@H](C)NC(=O)C(C)(C)NC(=O)[C@H](Cc3cccc(C(=O)O)c3)NC(=O)[C@H](CC(=O)O)NC1=O)NC(=O)[C@H](CC(C)(C)C)NC(=O)[C@H](CC(=O)O)NC2=O (relative stereo) [I-328, Ac-PL3-Asp-Npg-B5-Asp-3COOHF-Aib-Ala-Phe-Lys*3-PyrS2-3Thi-34ClF-GlnR*3-Ala-NH2]",< 50,1.5 to 3
"CC(=O)N1CCC[C@]12CC=CCCCC1(CCCC=CCCCOC(=O)N3CC[C@@]4(C3)NC(=O)[C@H](CCCCNC(=O)CC[C@@H](C(=O)N[C@@H](C)C(N)=O)NC(=O)[C@H](Cc3ccc(Cl)c(Cl)c3)NC(=O)[C@H](Cc3ccccc3)NC4=O)NC(=O)[C@H](Cc3ccccc3)NC(=O)[C@H](C)NC(=O)C(C)(C)NC(=O)[C@H](Cc3cccc(C(=O)O)c3)NC(=O)[C@H](CC(=O)O)NC1=O)NC(=O)[C@H](CC(C)(C)C)NC(=O)[C@H](CC(=O)O)NC2=O (relative stereo) [I-329, Ac-PL3-Asp-Npg-B5-Asp-3COOHF-Aib-Ala-Phe-Lys*3-PyrS2-Phe-34ClF-GlnR*3-Ala-NH2]",< 50,< 1.5
"CC(=O)N1CCC[C@]12CC=CCCCC1(CCCC=CCCCOC(=O)N3CC[C@@]4(C3)NC(=O)[C@H](CCCCNC(=O)CC[C@@H](C(=O)N[C@@H](C)C(N)=O)NC(=O)[C@H](Cc3ccc(C)c(C)c3)NC(=O)[C@H](Cc3ccccc3C(F)(F)F)NC4=O)NC(=O)[C@H](Cc3ccccc3)NC(=O)[C@H](C)NC(=O)C(C)(C)NC(=O)[C@H](Cc3cccc(C(=O)O)c3)NC(=O)[C@H](CC(=O)O)NC1=O)NC(=O)[C@H](CC(C)(C)C)NC(=O)[C@H](CC(=O)O)NC2=O (relative stereo) [I-330, Ac-PL3-Asp-Npg-B5-Asp-3COOHF-Aib-Ala-Phe-Lys*3-PyrS2-2F3MeF-34MeF-GlnR*3-Ala-NH2]",< 50,3 to 10
"CC(=O)N1CCC[C@]12CC=CCCCC1(CCCC=CCCCOC(=O)N3CC[C@@]4(C3)NC(=O)[C@H](CCCCNC(=O)CC[C@@H](C(=O)N[C@@H](C)C(N)=O)NC(=O)[C@H](Cc3cccc(Br)c3)NC(=O)[C@H](Cc3ccsc3)NC4=O)NC(=O)[C@H](Cc3ccccc3)NC(=O)[C@H](C)NC(=O)C(C)(C)NC(=O)[C@H](Cc3cccc(C(=O)O)c3)NC(=O)[C@H](CC(=O)O)NC1=O)NC(=O)[C@H](CC(C)(C)C)NC(=O)[C@H](CC(=O)O)NC2=O (relative stereo) [I-332, Ac-PL3-Asp-Npg-B5-Asp-3COOHF-Aib-Ala-Phe-Lys*3-PyrS2-3Thi-3BrF-GlnR*3-Ala-NH2]",< 50,3 to 10
"CC(=O)N1CCC[C@]12CC=CCCCC1(CCCC=CCCCOC(=O)N3CC[C@@]4(C3)NC(=O)[C@H](CCCCNC(=O)CC[C@@H](C(=O)N[C@@H](C)C(N)=O)NC(=O)[C@H](Cc3csc5ccccc35)NC(=O)[C@H](Cc3cccc5ccccc35)NC4=O)NC(=O)[C@H](Cc3ccccc3)NC(=O)[C@H](C)NC(=O)C(C)(C)NC(=O)[C@H](Cc3cccc(C(=O)O)c3)NC(=O)[C@H](CC(=O)O)NC1=O)NC(=O)[C@H](CC(C)(C)C)NC(=O)[C@H](CC(=O)O)NC2=O (relative stereo) [I-334, Ac-PL3-Asp-Npg-B5-Asp-3COOHF-Aib-Ala-Phe-Lys*3-PyrS2-1NapA-BztA-GlnR*3-Ala-NH2]",< 50,1.5 to 3
"CC(=O)N1CCC[C@]12CC=CCCCC1(CCCC=CCCCOC(=O)N3CC[C@@]4(C3)NC(=O)[C@H](CCCCNC(=O)CC[C@@H](C(=O)N[C@@H](CCC(=O)O)C(=O)N[C@@H](C)C(N)=O)NC(=O)[C@H](Cc3csc5ccccc35)NC(=O)[C@H](Cc3ccsc3)NC4=O)NC(=O)[C@H](Cc3ccccc3)NC(=O)[C@H](C)NC(=O)C(C)(C)NC(=O)[C@H](Cc3cccc(C(=O)O)c3)NC(=O)[C@H](CC(=O)O)NC1=O)NC(=O)[C@H](CC(C)(C)C)NC(=O)[C@H](CC(=O)O)NC2=O (relative stereo) [I-342, Ac-PL3-Asp-Npg-B5-Asp-3COOHF-Aib-Ala-Phe-Lys*3-PyrS2-3Thi-BztA-GlnR*3-Glu-Ala-NH2]",< 50,1.5 to 3
"CC(=O)N1CCC[C@]12CC=CCCCC1(CCCC=CCCCOC(=O)N3CC[C@@]4(C3)NC(=O)[C@H](CCCCNC(=O)CC[C@@H](C(=O)N[C@@H](C)C(=O)N[C@@H](CCC(=O)O)C(=O)N[C@@H](C)C(N)=O)NC(=O)[C@H](Cc3csc5ccccc35)NC(=O)[C@H](Cc3ccsc3)NC4=O)NC(=O)[C@H](Cc3ccccc3)NC(=O)[C@H](C)NC(=O)C(C)(C)NC(=O)[C@H](Cc3cccc(C(=O)O)c3)NC(=O)[C@H](CC(=O)O)NC1=O)NC(=O)[C@H](CC(C)(C)C)NC(=O)[C@H](CC(=O)O)NC2=O (relative stereo) [I-343, Ac-PL3-Asp-Npg-B5-Asp-3COOHF-Aib-Ala-Phe-Lys*3-PyrS2-3Thi-BztA-GlnR*3-Ala-Glu-Ala-NH2]",< 50,1.5 to 3
